Source: patent publication US20190010167A1, “INHIBITORS OF THE MENIN-MLL INTERACTION” (Vitae Pharmaceuticals, Inc., priority 2015, published 2019)

Protein sequences, listed by entry. Tags and fused reporters are not part of them.
UniProt O00255, whole entry: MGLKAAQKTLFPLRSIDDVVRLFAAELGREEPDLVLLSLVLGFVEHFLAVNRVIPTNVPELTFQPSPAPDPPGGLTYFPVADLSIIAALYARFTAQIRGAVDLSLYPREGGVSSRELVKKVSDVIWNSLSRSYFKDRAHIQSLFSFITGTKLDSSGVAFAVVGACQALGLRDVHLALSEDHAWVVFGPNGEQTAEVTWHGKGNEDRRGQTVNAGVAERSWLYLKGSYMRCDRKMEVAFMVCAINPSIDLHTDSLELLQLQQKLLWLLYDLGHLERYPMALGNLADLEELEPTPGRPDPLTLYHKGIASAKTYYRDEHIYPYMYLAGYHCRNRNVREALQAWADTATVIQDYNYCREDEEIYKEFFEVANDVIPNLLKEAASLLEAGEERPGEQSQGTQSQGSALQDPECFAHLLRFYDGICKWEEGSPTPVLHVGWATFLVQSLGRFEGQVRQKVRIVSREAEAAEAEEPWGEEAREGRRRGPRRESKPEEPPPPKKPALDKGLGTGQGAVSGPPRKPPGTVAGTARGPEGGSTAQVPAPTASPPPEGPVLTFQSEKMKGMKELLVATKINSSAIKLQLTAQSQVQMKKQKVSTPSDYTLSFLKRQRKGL

Target: wild-type menin / MLL-AF9 fusion protein (Homo sapiens, UniProt O00255)
Experiment: AlphaLISA menin/MLL binding assay, wild-type menin (Assay 1)
Conditions: read-out: Assay 1 Wild Type Menin IC50, biotinylated wild-type menin 5 nM, MLL-AF9-FLAG lysate, tested form: probably trifluoroacetate (second 19F si)
Experimental: Potencies of inhibitor compounds against menin/MLL binding were assessed by AlphaLISA assay using biotinylated (1) wild-type menin or (2) mutated menin (described in Nature (2012) Vol. 482, pp. 542-548) and MLL-AF9 fusion protein bearing a FLAG epitope at its C-terminus. Menin proteins were expressed in E. coli and covalently modified with biotin using EZ-Link™ Sulfo-NHS-Biotin (ThermoFisher Cat. No. 21217) according to manufacturer's protocol. MLL1-1,396 fused to AF91-92 and the C-terminal FLAG peptide was expressed in HEK293 cells and used as a lysate cleared at 21,000×g for 10 min.
Compounds (2 μL of solutions in DMSO) were dispensed in white 96-well half-area plates (Corning Cat. No. 3693) and incubated for 30 min at RT with 5 nM biotinylated menin and appropriate amount of MLL-AF9-FLAG lysate in 40 μL of 50 mM Tris-HCl buffer pH 7.4 containing 5% (v/v) DMSO, 50 mM NaCl, 0.01% (w/v) bovine serum albumin (BSA) and 1 mM DTT. To this incubation mixture, 40 μl of AlphaLISA anti-FLAG acceptor (PerkinElmer Cat. No. AL112C) and streptavidin donor (PerkinElmer Cat. No. 6760002) beads (10 μg/mL each) was added and incubation continued at RT for 60 min. Alpha (amplified luminescent proximity homogeneous assay) signal was measured on an Envision multi-label plate reader at the end of the incubation. All steps were conducted under dim fluorescent light. […]

IC50 [nM] | SMILES
> 1000 | COC1CCC(C(=O)N2CC3(C2)CN(c2ncnc4sc(CC(F)(F)F)cc24)C3)CC1 (single isomer, unassigned) [Example 60a]
100 to 1000 | COC1CCC(C(=O)N2CC3(C2)CN(c2ncnc4sc(CC(F)(F)F)cc24)C3)CC1 (single isomer, unassigned) [Example 60b]
